The other results are listed elsewhere or left out.
These compounds were tested on A. baumannii ATCC 17978 (assay: relative growth (fraction of control); higher = less inhibition). Settings: 50 µM.

Row | Compound | relative growth
1 | NS(=O)(=O)Cc1noc2ccccc12 | 0.834
2 | COCC#Cc1ccc2c(c1)O[C@H](CN(C)S(=O)(=O)c1ccc(F)cc1)[C@H](C)CN([C@H](C)CO)S2(=O)=O | 0.951
3 | COc1ccc2c(c1)C(=O)N(CCc1ccc(S(=O)(=O)NC(=O)NC3CCCCC3)cc1)C(=O)C2(C)C | 1.11
4 | Cc1ccc(S(=O)(=O)N2C[C@H](O)COC[C@@H]3O[C@@H](CC(=O)N[C@H]4CCN(Cc5ccccc5)C4)CC[C@H]32)cc1 | 0.96
5 | O=C(N[C@H]1CC[C@H](CC(=O)N2CCOCC2)O[C@@H]1CO)c1ccc2c(c1)OCO2 | 1.03
6 | N#Cc1ccc(-c2ccccc2F)o1 | 0.895
7 | CCCCCCCCCCOc1cc2c(O)c(C(=O)OCC)cnc2cc1OCC | 1.49
8 | COCC(=O)N(C)C[C@@H]1Oc2cc(C#C[C@H](C)O)ccc2S(=O)(=O)N([C@@H](C)CO)C[C@H]1C | 1
9 | CN(C)CCCNC(=O)C[C@@H]1CC[C@H](NS(=O)(=O)c2ccccc2)[C@H](CO)O1 | 0.978
10 | Cc1cn([C@H]2C[C@H](N=[N+]=[N-])[C@@H](CO)O2)c(=O)[nH]c1=O | 1.11
11 | COCCNC(=O)C[C@@H]1CC[C@@H](NS(=O)(=O)c2ccc(C)cc2)[C@@H](CO)O1 | 1.02
12 | OCCNC(=S)NC1CCCC1 | 0.981
13 | O=C(C[C@H]1CC[C@H]2[C@@H](COC[C@@H](O)CN2S(=O)(=O)c2ccccc2)O1)NCc1ccc2c(c1)OCO2 | 1.03
14 | COc1ccc([C@H]([C@H](Cc2ccccc2)OC(C)=O)N(C[C@H](/C=C/c2ccccc2)CC(=O)N(C)C)[C@@H](Cc2ccccc2)C(OC)OC)cc1 | 1.13
15 | C[C@H]1[C@H]([Si](C)(C)F)[C@@H](CC(=O)N2Cc3ccccc3C[C@H]2CO)O[C@]12C(=O)N(c1ccccc1)c1ccccc12 | 0.913
16 | O=C(OCc1ccccc1)c1cccnc1 | 1.32
17 | O=C(Nn1cnnc1)c1ccccc1 | 1.03
18 | C[C@]12C=CC(=O)C=C1CCC1C2C(=O)C[C@@]2(C)C1CC[C@]2(O)C(=O)CO (stereo not given in full) | 1.03
19 | Oc1ccccc1CNc1ccc(C2CCCCC2)cc1 | 1.08
20 | C[C@@H]1CCC2[C@](C)(CO)[C@@H](O)CC[C@]2(C)[C@@]12CC[C@@](CO)(CCO)O2 (stereo not given in full) | 1.08
21 | O=C(O)/C=C/C=C/c1ccccc1 | 0.951
22 | O=C(C[C@@H]1CC[C@H]2[C@@H](COC[C@@H](O)CN2S(=O)(=O)c2cccc(Cl)c2)O1)N1CCOCC1 | 0.969
23 | Cc1cccc(S(=O)(=O)N2C[C@H](O)COC[C@@H]3O[C@H](CC(=O)N4CCN(C)CC4)CC[C@H]32)c1 | 1
24 | C=CCOC(=O)[C@H]1[C@@H]2C(=O)O[C@@H](c3ccccc3)[C@@H](c3ccccc3)N2[C@@H](c2ccc(OCCOC(=O)NCCCCCC(=O)NO)cc2)[C@@]12C(=O)Nc1ccccc12 | 0.945
25 | CCCCC1C(=O)N(c2ccccc2)N(c2ccccc2)C1=O | 1.02
26 | Brc1ccc(CSc2c[nH]c3ccccc23)cc1 | 0.854
27 | NCCCc1ccc2c(c1)OCO2 | 0.958
28 | COc1cccc(C#Cc2ccc3c(c2)O[C@H](CN(C)S(=O)(=O)c2ccccc2F)[C@H](C)CN([C@H](C)CO)S3(=O)=O)c1 | 0.979

Row | Compound | relative growth
29 | N[C@@H](CC(=O)Nc1ccc(Cl)cc1)C(=O)O | 1.12
30 | CCCc1nc2c(C)cc(-c3nc4ccccc4n3C)cc2n1Cc1ccc(-c2ccccc2C(=O)O)cc1 | 1.03
31 | COc1ccc(S(=O)(=O)Nc2ccc3c(c2)[C@@H]2C[C@@H](CC(=O)NCC4CC4)O[C@H](CO)[C@@H]2O3)cc1 | 1.27
32 | CO[C@@H](CN(C)S(=O)(=O)c1cn(C)cn1)[C@@H](C)CN(C(=O)Nc1ccc(C(F)(F)F)cc1)[C@@H](C)CO | 0.911
33 | CC(C)(C)OC(=O)C[C@H]1CC=CC[C@@H](CC(=O)N[C@@H](CO)Cc2ccccc2)C(=O)N[C@@H](C(C)(C)C)COC1=O | 0.859
34 | CCCCOC(=O)c1ccc(O)cc1 | 1.05
35 | C#C[C@]1(OC(C)=O)CC[C@H]2[C@@H]3CCC4=CC(=O)CC[C@@H]4[C@H]3CC[C@@]21C | 1.01
36 | CC(=O)OCC[N+](C)(C)C.[Cl-] | 1.12
37 | O=C(O)[C@H]1C[C@H](O)CN1Cc1ccccc1 | 1.13
38 | COc1ccc(-c2cc(=O)c3c(O)c(OC)c(OC)c(OC)c3o2)cc1OC | 1.1
39 | C[C@@H]1CCCCO[C@H](CN(C)Cc2ccc3c(c2)OCO3)[C@@H](C)CN([C@H](C)CO)C(=O)c2cc(NS(=O)(=O)c3cccs3)ccc2O1 | 0.862
40 | CC1=CC(=O)c2ccccc2C1=O | 0.564
41 | CO[C@@H](CN(C)C(=O)C1CCOCC1)[C@@H](C)CN(C(=O)Nc1ccc(C(F)(F)F)cc1)[C@H](C)CO | 0.922
42 | COc1cccc(S(=O)(=O)N(C)C[C@H]2Oc3ncc(-c4cccc(C(=O)N(C)C)c4)cc3C(=O)N([C@@H](C)CO)C[C@H]2C)c1 | 1.09
43 | Cc1ccccc1N1CCN(S(=O)(=O)C[C@@]23CC[C@@H](C[C@@H]2NC(=O)[C@@H](N)CCS(C)(=O)=O)C3(C)C)CC1 | 0.917
44 | Cn1cnc(CCNC(=O)C[C@@H]2CC[C@@H]3[C@H](COC[C@@H](O)CN3C(=O)Nc3ccc(C(F)(F)F)cc3)O2)c1 | 1.06
45 | NNC(=O)C1CCCC1 | 0.978
46 | NNC(=O)c1ccc(C(=O)NO)cc1 | 0.979
47 | COC(=O)C1=CC(CCCO)=C[C@@H](c2cccs2)N(Cc2cccc(OC(F)(F)F)c2)C=C1C(=O)OC | 1.03
48 | COC(=O)c1ccc(O)c(/C=N/N(CCO)C2=NS(=O)(=O)c3ccccc32)c1 | 1.03
49 | O=C(CN1CCOCC1)N[C@H]1CC[C@@H](CCNC(=O)C2CCC2)O[C@@H]1CO | 1.21
50 | CC(Cc1ccc(O)c(O)c1)C(C)Cc1ccc(O)c(O)c1 (stereo not given) | 0.972
51 | CCOC(=O)CN1C(=O)c2ccccc2C1=O | 1.06
52 | O=C(O)Cc1cc(I)c(Oc2ccc(O)c(I)c2)c(I)c1 | 1.05
53 | CC(CCC(=O)O)[C@H]1CCC2C3CC[C@@H]4CCCC[C@]4(C)C3CC[C@@]21C (stereo not given in full) | 1.14
54 | CCNC(=O)C[C@H]1CC[C@@H]2[C@H](COC[C@H](O)CN2S(=O)(=O)c2ccc(Oc3ccccc3)cc2)O1 | 0.933
55 | O=C(CN1CCOCC1)NCC[C@@H]1CC[C@@H](NC(=O)Nc2ccccc2)[C@@H](CO)O1 | 0.969

Reference: published antibiotic growth screens (doi:10.1038/s41589-023-01349-8)
